System: LIF-overexpressing MCF-7 (MCF-7 LIF) human breast cancer cells
Assay: LIF specificity assay, cytotoxicity
Assay type: cell-based
Details: cytotoxicity MCF-7 vs. MCF-7 LIF (specificity towards LIF)

C#CC(F)(F)[C@]1(O)CCC2C3CCC4=CC(=O)CCC4=C3C(c3ccc(C4CC4)cc3)C[C@@]21C (stereo partly drawn) [EC330, 17α-(1,1-difluoro-2-propyn-1-yl)-17β-hydroxy-11β-[4-p-(cyclopropyl)phenyl]estra-4,9-dien-3-one]
Fold Change: 3
